≈ marks a conversion by molar mass, not a printed value.
Experiments:
[1] = tested on: slime organisms; assay: Action against slime organisms (MIC in Allen's nutrient solution); type: cell-based; conditions: about 10^6 germs/ml, 3 weeks at room temperature
[2] = tested on: Coniophora puteana; assay: MIC against fungi, beerwort/peptone agar; conditions: 28° C., 60 to 70% relative humidity, 2 weeks
[3] = tested on: Aureobasidium pullulans; assay: MIC against fungi, beerwort/peptone agar; conditions: 28° C., 60 to 70% relative humidity, 2 weeks
[4] = tested on: Polyporus versicolor; assay: MIC against fungi, beerwort/peptone agar; conditions: 28° C., 60 to 70% relative humidity, 2 weeks
[5] = tested on: Trichoderma viride; assay: MIC against fungi, beerwort/peptone agar; conditions: 28° C., 60 to 70% relative humidity, 2 weeks
[6] = tested on: Chaetomium globosum; assay: MIC against fungi, beerwort/peptone agar; conditions: 28° C., 60 to 70% relative humidity, 2 weeks
[7] = tested on: Lentinus tigrinus; assay: MIC against fungi, beerwort/peptone agar; conditions: 28° C., 60 to 70% relative humidity, 2 weeks
[8] = tested on: mixed culture of green algae, blue algae, brown algae and diatoms; assay: Algae-destroying concentration in Allen's nutrient solution; conditions: decolorization of nutrient solution after 2 weeks' algae growth

Compound | MIC [1] | MIC [2] | MIC [3] | MIC [4] | MIC [5] | MIC [6] | MIC [7] | Destroying concentration (algae-destroying) [8]
N#CC=C(Cl)SCC(Cl)(Cl)C#N | 0.35 mg/L (≈ 1.45 µM) | 1 mg/L (≈ 4.14 µM) | 10 mg/L (≈ 41.4 µM) | 10 mg/L (≈ 41.4 µM) | 100 mg/L (≈ 414 µM) | 15 mg/L (≈ 62.1 µM) | 5 mg/L (≈ 20.7 µM) | 25 mg/L
N#CC(Cl)=C(Cl)SCC(Cl)(Cl)C#N | 0.35 mg/L (≈ 1.27 µM) | 0.5 mg/L (≈ 1.81 µM) | 5 mg/L (≈ 18.1 µM) | 5 mg/L (≈ 18.1 µM) | 50 mg/L (≈ 181 µM) | 10 mg/L (≈ 36.2 µM) | 2 mg/L (≈ 7.25 µM) | 25 mg/L

From patent publication US4647687A, “Halogenated sulphides, process for their preparation and their use in microbicidal agents” (Bayer Aktiengesellschaft, priority 1983, dated 1987)
